Reference: ChEMBL document CHEMBL5370599, “Discovery of a 53BP1 Small Molecule Antagonist Using a Focused DNA-Encoded Library Screen” (J Med Chem, 2023)
Activity calls are given as the source filed them. The rule behind the calls is not given here.

System: TERT-RPE1
Test: Induction of DNA repair in human RPE-1 cells assessed as reduction in NHEJ level at 50 uM by pathsig-ddPCR analysis
Type: functional, cell-based

COc1ccc([C@@H](O)c2cc(-c3ncnc4cc(N5CCOCC5)ccc34)c(F)cc2Cl)nn1
Activity: Active
